This note sets out measurements from paper PMC5762728 (Scientific Reports, 2018).

Data set [1] addresses T1, N-domain of bovine ACE (N-ACE) (Bos taurus, UniProt P12820).
T1 sequence (P12820 40-624 limits assumed): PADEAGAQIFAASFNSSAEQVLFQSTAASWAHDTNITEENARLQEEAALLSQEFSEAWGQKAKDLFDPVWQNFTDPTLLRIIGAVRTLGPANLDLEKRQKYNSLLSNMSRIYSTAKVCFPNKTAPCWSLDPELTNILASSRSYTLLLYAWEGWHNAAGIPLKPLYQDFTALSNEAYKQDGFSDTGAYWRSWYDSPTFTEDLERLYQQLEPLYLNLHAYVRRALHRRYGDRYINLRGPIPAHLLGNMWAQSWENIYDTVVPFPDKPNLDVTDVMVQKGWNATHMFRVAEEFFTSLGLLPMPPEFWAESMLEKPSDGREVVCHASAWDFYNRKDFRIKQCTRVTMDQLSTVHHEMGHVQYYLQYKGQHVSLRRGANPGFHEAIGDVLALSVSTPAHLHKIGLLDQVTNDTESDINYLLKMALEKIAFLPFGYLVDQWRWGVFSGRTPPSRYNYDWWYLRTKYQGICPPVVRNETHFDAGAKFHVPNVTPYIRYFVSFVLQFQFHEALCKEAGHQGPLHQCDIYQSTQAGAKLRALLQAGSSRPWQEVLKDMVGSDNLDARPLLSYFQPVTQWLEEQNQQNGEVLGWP
Nature of the data set: Inhibition of N-ACE hydrolysis of Aβ peptides by lisinopril. The data set is classed as biochemical. As to conditions: MALDI-TOF MS.

The target in data set [2] is T2, C-domain of bovine ACE (C-ACE) (Bos taurus, UniProt P12820).
T2 sequence (P12820 643-1222 limits assumed): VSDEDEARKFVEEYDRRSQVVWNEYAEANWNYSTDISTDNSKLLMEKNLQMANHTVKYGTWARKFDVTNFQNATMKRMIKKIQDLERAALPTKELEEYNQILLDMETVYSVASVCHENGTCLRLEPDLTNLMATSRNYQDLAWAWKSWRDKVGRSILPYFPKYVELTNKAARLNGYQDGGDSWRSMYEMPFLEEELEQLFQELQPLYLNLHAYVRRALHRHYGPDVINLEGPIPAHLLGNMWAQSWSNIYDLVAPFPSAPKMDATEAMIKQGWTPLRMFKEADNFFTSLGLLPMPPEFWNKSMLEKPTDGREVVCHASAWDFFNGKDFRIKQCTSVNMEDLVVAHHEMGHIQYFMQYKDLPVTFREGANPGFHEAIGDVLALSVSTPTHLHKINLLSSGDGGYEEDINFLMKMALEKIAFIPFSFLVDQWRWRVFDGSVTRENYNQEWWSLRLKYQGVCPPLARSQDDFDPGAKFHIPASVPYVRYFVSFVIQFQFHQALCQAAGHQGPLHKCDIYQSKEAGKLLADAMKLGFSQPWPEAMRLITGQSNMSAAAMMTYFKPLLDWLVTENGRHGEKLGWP
Put plainly: Inhibition of C-ACE hydrolysis of Aβ peptides by lisinopril. The data set is classed as biochemical. As to conditions: MALDI-TOF MS.

Data set [3] concerns the target T1, N-domain of bovine ACE (N-ACE). Nature of the data set: Hydrolysis of Aβ metal-binding-domain peptides by N-ACE, products identified/quantified by MALDI-TOF MS. As to conditions: 20 μM peptide, 60 min; Arg13-His14 cleavage; MALDI-TOF MS with 18O-labeled internal standards.

As for `NCCCC[C@H](N[C@@H](CCc1ccccc1)C(=O)O)C(=O)N1CCC[C@H]1C(=O)O` [lisinopril], the “Effect of lisinopril on N-ACE hydrolysis of Aβ(1-16)-[Amide] and [Acetyl]-Aβ(1-16)-[Amide]” value in data set [1] (lisinopril 10 μM) was “complete inhibition of hydrolysis”. Also, the “Effect of lisinopril on N-ACE hydrolysis of [Acetyl]-ratAβ(1-16)-[Amide]” value in data set [1] (lisinopril) is given as “complete inhibition of hydrolysis”. Further, in data set [2], the “Effect of lisinopril on C-ACE hydrolysis of [Acetyl]-ratAβ(1-16)-[Amide]” value is “complete inhibition of hydrolysis”.
Take “Ac-DAEFGHDSGFEVRHQK-NH2 [[CH3CO]-Asp-Ala-Glu-Phe-Gly^5-His-Asp- Ser-Gly- Phe^10-Glu-Val-Arg-His-Gln^15-Lys-[NH2]]”: in data set [3], the “Amount of [Acetyl]-ratAβ(1-13) formed from [Acetyl]-ratAβ(1-16)-[Amide] by N-ACE relative to C-ACE” value is 4–4.5 times.
